Target: D(2) dopamine receptor (Homo sapiens, UniProt P14416)
Assay: biochemical

Amino acid sequences for entries named in this document (tags omitted).
UniProt P14416, whole entry: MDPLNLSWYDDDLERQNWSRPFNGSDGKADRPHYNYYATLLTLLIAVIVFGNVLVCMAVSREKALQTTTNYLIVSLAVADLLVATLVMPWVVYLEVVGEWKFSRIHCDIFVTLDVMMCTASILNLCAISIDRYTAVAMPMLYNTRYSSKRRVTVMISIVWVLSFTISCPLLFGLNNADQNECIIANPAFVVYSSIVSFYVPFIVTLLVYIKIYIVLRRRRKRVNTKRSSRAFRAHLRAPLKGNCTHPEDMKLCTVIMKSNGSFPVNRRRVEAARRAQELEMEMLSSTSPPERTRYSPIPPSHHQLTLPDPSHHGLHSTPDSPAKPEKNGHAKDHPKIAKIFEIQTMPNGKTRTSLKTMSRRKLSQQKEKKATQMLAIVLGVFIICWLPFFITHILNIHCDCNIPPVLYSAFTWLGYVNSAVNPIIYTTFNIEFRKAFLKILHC

Ki: 51.4 nM
SMILES: O=C(NCCCCN1CCN(c2cccc(Cl)c2Cl)CC1)c1ccc(I)cc1
